Reference: US8628750B2, “Cancer imaging and treatment” (Technische Universitat Munchen, priority 2006, dated 2014)
Like-named read-outs stand apart in the source and are kept apart here.

By UniProt entry, the sequences of proteins in these tests, tags left out.
UniProt P61073, whole entry: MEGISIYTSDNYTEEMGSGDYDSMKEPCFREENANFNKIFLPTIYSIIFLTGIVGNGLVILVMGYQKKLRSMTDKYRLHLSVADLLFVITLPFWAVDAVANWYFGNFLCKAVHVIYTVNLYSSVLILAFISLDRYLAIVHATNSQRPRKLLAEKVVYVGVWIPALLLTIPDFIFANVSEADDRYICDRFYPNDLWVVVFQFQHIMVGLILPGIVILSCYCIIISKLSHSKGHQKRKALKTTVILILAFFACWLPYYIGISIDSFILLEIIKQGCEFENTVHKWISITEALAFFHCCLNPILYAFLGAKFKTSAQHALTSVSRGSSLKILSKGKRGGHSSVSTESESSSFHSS

Biological target: human CXCR4 (Homo sapiens, UniProt P61073)
Assay: cell-based
Assay type: binding
Design: Jurkat cells that endogenously express the CXCR4 receptor; endogenous in cells; host or cells: Jurkat (ATCC)
Settings: for affinity profile (IC50) in words: either with ^125I-CPCR4 or ^125I-SDF-1α as tracer
Protocol: For receptor binding assays cells were resuspended in PBS/0.2% BSA. […] Cell bound radioactivity was determined by using a gamma counter.

| Molecule | affinity profile (IC50) in words | further results |
| --- | --- | --- |
| N=C(N)NCCC[C@@H]1NC(=O)[C@H](CCCNC(N)=O)NC(=O)[C@@H](Cc2ccc(O)cc2)NC(=O)CNC(=O)[C@H](Cc2ccc3ccccc3c2)NC1=O [OD27, cyc[Nal-Gly-D-Tyr-Cit-Arg]] |  | IC50: 35 ± 7 nM |
| SDF-1α | nanomolar IC50 values |  |
| cyc[D-Tyr-Arg-Arg-Nal-Dap(FP)-Gly] [BL 58] |  | IC50 (Table 7, N^α-methyl scan of cyclic hexapeptides, tracer ^125I-CPCR4, read-out: IC50): ~1000 nM |
| cyclo[D-Tyr-Arg-Arg-Nal-Gly] [CPCR4, reference compound] | nanomolar IC50 values |  |
